Properties, as collected for the OPERA models

Values as listed in the OPERA 2.9 repository of K. Mansouri.

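The numbers are reported measurements, compiled and curated for the OPERA QSAR suite. One number stands for a compound and property, with no spread given. Method, purity and exact conditions of the single measurements are not given. Where a salt, mixture or single isomer is drawn, the source does not say that exactly this form was tested. Some entries may be limits or estimates that an upstream database listed as plain numbers.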

The melting point is given in degrees Celsius.
The boiling point refers to atmospheric pressure (760 mmHg), by the definition of the set.
The octanol-water partition coefficient is given as log10; larger values mean a more lipophilic compound.
Water solubility is log10 of mol/L, nominally at 25 °C; higher is more soluble.
Vapor pressure is log10 of mmHg; the set covers 15 to 30 °C, mostly 20 to 25 °C.
The Henry's law constant is on a log10 scale in atm·m3/mol (set defined at 25 °C); higher favours air over water.
The unbound fraction in human plasma runs from 0 (all bound) to 1 (all free).
Clint is human hepatic intrinsic clearance in µL/min per million cells; 0 means that no clearance was seen.

{"smiles": "COC1=Cc2ccccc2Nc2ccccc21", "name": "10-Methoxyiminostilbene", "melting point (°C)": "125", "log Kow": "2.9"}
{"smiles": "Nc1c(Cl)cc(C(F)(F)F)cc1Cl", "name": "4-Amino-3,5-dichlorobenzotrifluoride", "log Kow": "4.58", "log solubility (log10 mol/L)": "-3.592", "log vapor pressure (log10 mmHg)": "-1.824"}
{"smiles": "CC(C)(COC(=O)c1ccccc1)COC(=O)c1ccccc1", "name": "Neopentyl glycol dibenzoate", "melting point (°C)": "46.5", "log Kow": "4.7", "log solubility (log10 mol/L)": "-5.43"}
{"smiles": "CCCCCCCCC1OC1CCCCCCCC(=O)OCC(COC(C)=O)OC(C)=O", "stereo": "configuration not stated", "melting point (°C)": "-1", "bp (°C)": "294.3"}
{"smiles": "O=C1c2ccccc2C(=O)N1CCS(=O)(=O)Cl", "name": "2-Phthalimidoethanesulfonyl chloride", "melting point (°C)": "159.1", "log vapor pressure (log10 mmHg)": "-9.544"}
{"smiles": "CN(C)c1ccc(/N=N/c2ccccc2C(=O)O)cc1", "name": "Methyl red", "fu": "0.0304", "intrinsic clearance (µL/min/10^6 cells)": "11.1"}
{"smiles": "CCCCCCCCCCCCCCCCN(C)C", "name": "N,N-Dimethyl-1-hexadecanamine", "log Kow": "6.91", "log vapor pressure (log10 mmHg)": "-3.763"}
{"smiles": "CC1(C)COP(=O)(NCCNP2(=O)OCC(C)(C)CO2)OC1", "melting point (°C)": "258.5", "bp (°C)": "274", "log Kow": "1", "log solubility (log10 mol/L)": "-2.764"}
{"smiles": "CC1=CC(C)C(C=O)C(C)C1", "stereo": "configuration not stated", "name": "2,4,6-Trimethylcyclohex-3-enecarbaldehyde", "log solubility (log10 mol/L)": "-1.844", "log vapor pressure (log10 mmHg)": "-0.307"}
{"smiles": "CCCCCCCCCCCCCC[Si](C)(Cl)Cl", "name": "Dichloro(methyl)tetradecylsilane", "melting point (°C)": "6", "log vapor pressure (log10 mmHg)": "-3.417"}
{"smiles": "CC(C)(C#N)c1cc(Cn2cncn2)cc(C(C)(C)C#N)c1", "name": "Anastrozole", "log Kow": "2.4", "log solubility (log10 mol/L)": "-3.208"}
{"smiles": "CC1C(C)(C)C2CCc3cncnc3C2C1(C)C", "stereo": "configuration not stated", "bp (°C)": "339", "log solubility (log10 mol/L)": "-4.396", "log vapor pressure (log10 mmHg)": "-3.663"}
{"smiles": "CC(C)(C)c1ccc(OCC2CO2)cc1", "stereo": "configuration not stated", "name": "tert-Butyl phenyl glycidyl ether", "melting point (°C)": "-39", "log Kow": "3.59", "log solubility (log10 mol/L)": "-3.43", "log vapor pressure (log10 mmHg)": "-3.677"}
{"smiles": "C=C(C)C(=O)OC(=O)C(=C)C", "name": "Methacrylic anhydride", "log Kow": "0.93", "log vapor pressure (log10 mmHg)": "-0.171"}
{"smiles": "COC(=O)CN(c1cc(NC(C)=O)c(N=Nc2c(Cl)cc([N+](=O)[O-])cc2C#N)cc1OC)C(C)C(=O)OC", "stereo": "configuration not stated", "melting point (°C)": "166.4", "log Kow": "2.9", "log vapor pressure (log10 mmHg)": "-14.64"}
{"smiles": "COC1(OC)CCC2=C(CC[C@@H]3[C@@H]2CC[C@]2(C)C(=O)CC[C@@H]32)C1", "name": "3,3-Dimethoxyestr-5(10)-en-17-one", "melting point (°C)": "115.2", "log Kow": "4.04", "log solubility (log10 mol/L)": "-4.042", "log vapor pressure (log10 mmHg)": "-7.453"}
{"smiles": "O=S(=O)(O)CS(=O)(=O)O", "name": "Methanedisulfonic acid", "bp (°C)": "263", "log Kow": "-1.49", "log vapor pressure (log10 mmHg)": "-7.783"}
{"smiles": "C=C(C)C(=O)OCCOP(=O)([O-])OCC[N+](C)(C)C", "melting point (°C)": "140.8", "log Kow": "-1.76"}
{"smiles": "CCCCC/C=C\\C=C\\C(=O)OCC", "name": "Ethyl (2E,4Z)-deca-2,4-dienoate", "bp (°C)": "248.8", "log solubility (log10 mol/L)": "-4.44"}
{"smiles": "OC[C@@H]1CO[C@@](Cn2cncn2)(c2ccc(Cl)cc2Cl)O1", "stereo": "relative stereo", "melting point (°C)": "135.6", "log solubility (log10 mol/L)": "-2.906", "log vapor pressure (log10 mmHg)": "-7.609"}
{"smiles": "CCc1nc(N)nc(N)c1-c1ccc(Cl)cc1", "name": "Pyrimethamine", "log solubility (log10 mol/L)": "-3.4", "log vapor pressure (log10 mmHg)": "-7.206", "intrinsic clearance (µL/min/10^6 cells)": "2.768"}
{"smiles": "Nc1cc([N+](=O)[O-])cc(C(=O)O)c1O", "name": "3-Amino-5-nitrosalicylic acid", "melting point (°C)": "227", "log Kow": "0.76", "log solubility (log10 mol/L)": "-2.491"}
{"smiles": "NC(=O)Nc1ccc(Cl)cc1", "name": "4-Chlorophenylurea", "log solubility (log10 mol/L)": "-1.979", "log vapor pressure (log10 mmHg)": "-3.783", "log Henry constant (log10 atm·m3/mol)": "-9.827"}
{"smiles": "CCCCC(=O)OCC(=O)[C@H]1[C@H](C)C[C@H]2[C@@H]3C[C@H](F)C4=CC(=O)C=C[C@]4(C)[C@@]34O[C@H]4C[C@@]21C", "melting point (°C)": "102.3", "log Kow": "4.34", "log solubility (log10 mol/L)": "-5.604", "log vapor pressure (log10 mmHg)": "-10.36"}
{"smiles": "C=C1COC(C)(C)O1", "name": "4-Methylen-2,2-dimethyl-1,3-dioxolane", "bp (°C)": "106", "log Kow": "1.6", "log solubility (log10 mol/L)": "-1.735", "log vapor pressure (log10 mmHg)": "0.526"}
{"smiles": "COC(=O)c1c(Cl)c(Cl)c(C(=O)SC)c(Cl)c1Cl", "name": "Glenbar", "melting point (°C)": "161.5", "log solubility (log10 mol/L)": "-5.985"}
{"smiles": "NCCCOCCOCCOCCCN.O=C(O)/C=C\\C(=O)O.O=C(O)/C=C\\C(=O)O", "log Kow": "-2.6", "log vapor pressure (log10 mmHg)": "-5.941"}
{"smiles": "C/C=C(C)\\C=C\\C=C(C)C", "name": "(4Z,6Z)-Alloocimene", "log Kow": "4.71", "log solubility (log10 mol/L)": "-4.162", "log vapor pressure (log10 mmHg)": "-0.099"}
{"smiles": "Clc1cc(Cl)c(Oc2cc(Cl)c(Cl)cc2Cl)cc1Cl", "name": "2,2',4,4',5,5'-Hexachlorodiphenyl ether", "melting point (°C)": "114", "log solubility (log10 mol/L)": "-8.36"}
{"smiles": "CC(=O)[C@H]1CC[C@H]2[C@@H]3C[C@H](C)C4=CC(=O)CC[C@]4(C)[C@H]3[C@@H](O)C[C@]12C", "name": "Medrysone", "log Kow": "3.2", "log solubility (log10 mol/L)": "-4.01"}
{"smiles": "COc1cc(OC)nc(NC(=O)Oc2ccccc2)n1", "melting point (°C)": "120.8", "log Kow": "2.1", "log solubility (log10 mol/L)": "-3.614"}

Extract of 4 entries:

{"smiles": "CC(C)(C#N)c1cc(Cn2cncn2)cc(C(C)(C)C#N)c1", "name": "Anastrozole", "log Kow": "2.4", "log solubility (log10 mol/L)": "-3.208"}
{"smiles": "CC(C)(COC(=O)c1ccccc1)COC(=O)c1ccccc1", "name": "Neopentyl glycol dibenzoate", "melting point (°C)": "46.5", "log Kow": "4.7", "log solubility (log10 mol/L)": "-5.43"}
{"smiles": "COC1=Cc2ccccc2Nc2ccccc21", "name": "10-Methoxyiminostilbene", "melting point (°C)": "125", "log Kow": "2.9"}
{"smiles": "O=S(=O)(O)CS(=O)(=O)O", "name": "Methanedisulfonic acid", "bp (°C)": "263", "log Kow": "-1.49", "log vapor pressure (log10 mmHg)": "-7.783"}